The assay deals with Phenylethanolamine-N-methyl transferase (Bos taurus, UniProt P10938). The experiment in a line: Phenylethanolamine-N-methyl transferase enzyme assay.

Sequences of proteins named here, by UniProt entry; tags and fusion partners are left off.
UniProt P10938, whole entry: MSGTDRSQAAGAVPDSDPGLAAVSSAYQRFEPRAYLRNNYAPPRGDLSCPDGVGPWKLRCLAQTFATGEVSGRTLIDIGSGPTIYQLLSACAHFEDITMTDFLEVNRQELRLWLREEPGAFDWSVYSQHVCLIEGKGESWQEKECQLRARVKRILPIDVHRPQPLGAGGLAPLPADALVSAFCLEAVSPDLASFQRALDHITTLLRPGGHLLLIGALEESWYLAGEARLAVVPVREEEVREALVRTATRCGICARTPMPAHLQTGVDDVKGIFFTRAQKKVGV

The record followed here is patent US20090264384A1, “INDOLE, BENZIMIDAZOLE, AND BENZOLACTAM BORONIC ACID COMPOUNDS, ANALOGS THEREOF AND METHODS OF USE THEREOF” (Nuada, Inc., priority 2004, published 2009).

As usually defined, the IC50 is the point on the concentration scale where inhibition reaches its midpoint. The low end stands for higher potency, the high end for lower potency. Take `CC(N)c1cccc(Cl)c1Cl` (centres unmarked): the nH (Hill coefficient) is given as 1.4. Also, the IC50 (reference compound) worked out at 39 µM.
